Assays:
Assay in all cases: apparent dissociation constant pKd app (kinobead competition) (-log10(M)); higher = stronger binding
[1] = biological target: TESK2 (UniProt Q96S53)
[2] = biological target: WEE1 (UniProt P30291)
[3] = biological target: GSK3A (UniProt P49840)
[4] = biological target: LRRK2 (UniProt Q5S007)
[5] = biological target: YES1 (UniProt P07947)
[6] = biological target: JAK2 (UniProt O60674)
[7] = biological target: T1, MAP3K15 (UniProt Q6ZN16)
T1 sequence (whole entry): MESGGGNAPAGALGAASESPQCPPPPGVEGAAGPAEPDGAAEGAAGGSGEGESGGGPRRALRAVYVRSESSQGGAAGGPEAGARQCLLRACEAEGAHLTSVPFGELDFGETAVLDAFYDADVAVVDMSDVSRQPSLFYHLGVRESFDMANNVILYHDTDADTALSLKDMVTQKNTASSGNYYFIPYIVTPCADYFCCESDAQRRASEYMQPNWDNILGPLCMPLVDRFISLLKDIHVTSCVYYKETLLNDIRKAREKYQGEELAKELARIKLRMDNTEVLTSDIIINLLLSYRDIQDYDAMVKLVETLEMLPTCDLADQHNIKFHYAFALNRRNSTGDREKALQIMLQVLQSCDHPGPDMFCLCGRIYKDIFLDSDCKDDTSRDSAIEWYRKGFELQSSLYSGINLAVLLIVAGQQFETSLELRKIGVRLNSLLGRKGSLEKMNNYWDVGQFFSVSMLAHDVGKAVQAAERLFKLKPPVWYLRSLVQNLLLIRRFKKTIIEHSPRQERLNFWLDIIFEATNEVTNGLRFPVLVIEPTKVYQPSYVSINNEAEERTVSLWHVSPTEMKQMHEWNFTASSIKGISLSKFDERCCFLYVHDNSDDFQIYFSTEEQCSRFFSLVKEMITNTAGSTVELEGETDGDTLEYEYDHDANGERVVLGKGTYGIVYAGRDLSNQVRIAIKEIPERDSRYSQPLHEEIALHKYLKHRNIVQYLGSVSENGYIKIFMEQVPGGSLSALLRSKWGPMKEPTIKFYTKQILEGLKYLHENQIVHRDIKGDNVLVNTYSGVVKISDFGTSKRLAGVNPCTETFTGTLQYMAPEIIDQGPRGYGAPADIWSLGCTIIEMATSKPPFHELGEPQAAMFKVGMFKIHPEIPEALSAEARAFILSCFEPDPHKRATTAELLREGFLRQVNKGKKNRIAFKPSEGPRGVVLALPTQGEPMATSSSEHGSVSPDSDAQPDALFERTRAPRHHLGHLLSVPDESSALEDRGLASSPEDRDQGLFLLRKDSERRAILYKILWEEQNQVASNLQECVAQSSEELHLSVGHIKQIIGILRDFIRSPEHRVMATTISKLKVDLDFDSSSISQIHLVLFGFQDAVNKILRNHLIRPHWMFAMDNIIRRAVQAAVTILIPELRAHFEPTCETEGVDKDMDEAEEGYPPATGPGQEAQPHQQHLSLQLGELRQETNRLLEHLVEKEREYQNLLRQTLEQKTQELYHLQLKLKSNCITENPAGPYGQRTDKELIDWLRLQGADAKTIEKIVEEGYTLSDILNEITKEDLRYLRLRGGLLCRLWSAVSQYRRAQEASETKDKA

By UniProt entry, the sequences of proteins in these tests, tags left out. Where a name states a change or a piece, a line headed by the entry shows the natural chain unless it says otherwise.
UniProt Q96S53: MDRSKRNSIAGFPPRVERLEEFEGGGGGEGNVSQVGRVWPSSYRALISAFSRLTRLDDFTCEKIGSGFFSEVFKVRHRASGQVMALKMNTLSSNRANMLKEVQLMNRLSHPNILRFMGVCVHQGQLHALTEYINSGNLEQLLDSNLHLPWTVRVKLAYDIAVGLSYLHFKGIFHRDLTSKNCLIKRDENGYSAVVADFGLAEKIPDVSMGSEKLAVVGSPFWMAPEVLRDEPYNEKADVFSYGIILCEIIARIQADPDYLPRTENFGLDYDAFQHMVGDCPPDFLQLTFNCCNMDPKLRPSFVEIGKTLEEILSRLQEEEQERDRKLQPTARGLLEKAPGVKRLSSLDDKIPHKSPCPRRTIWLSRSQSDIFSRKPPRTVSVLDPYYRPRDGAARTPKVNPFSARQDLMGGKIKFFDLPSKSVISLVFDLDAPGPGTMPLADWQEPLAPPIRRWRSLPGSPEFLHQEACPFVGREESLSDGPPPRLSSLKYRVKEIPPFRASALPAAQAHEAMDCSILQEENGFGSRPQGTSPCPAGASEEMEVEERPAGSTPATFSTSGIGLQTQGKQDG
UniProt P49840: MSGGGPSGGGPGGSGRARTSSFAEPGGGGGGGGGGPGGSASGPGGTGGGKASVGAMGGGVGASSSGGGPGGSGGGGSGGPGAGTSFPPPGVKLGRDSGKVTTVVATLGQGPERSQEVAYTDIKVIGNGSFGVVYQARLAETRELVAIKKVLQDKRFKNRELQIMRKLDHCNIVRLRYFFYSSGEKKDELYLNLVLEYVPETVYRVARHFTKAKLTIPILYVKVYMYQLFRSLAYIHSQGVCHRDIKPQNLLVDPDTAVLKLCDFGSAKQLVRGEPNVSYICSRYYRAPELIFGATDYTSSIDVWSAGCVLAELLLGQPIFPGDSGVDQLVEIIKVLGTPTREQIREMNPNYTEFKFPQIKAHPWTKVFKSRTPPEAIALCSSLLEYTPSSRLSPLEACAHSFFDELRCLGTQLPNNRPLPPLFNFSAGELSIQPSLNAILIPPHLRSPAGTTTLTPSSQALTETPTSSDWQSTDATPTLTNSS
UniProt Q5S007: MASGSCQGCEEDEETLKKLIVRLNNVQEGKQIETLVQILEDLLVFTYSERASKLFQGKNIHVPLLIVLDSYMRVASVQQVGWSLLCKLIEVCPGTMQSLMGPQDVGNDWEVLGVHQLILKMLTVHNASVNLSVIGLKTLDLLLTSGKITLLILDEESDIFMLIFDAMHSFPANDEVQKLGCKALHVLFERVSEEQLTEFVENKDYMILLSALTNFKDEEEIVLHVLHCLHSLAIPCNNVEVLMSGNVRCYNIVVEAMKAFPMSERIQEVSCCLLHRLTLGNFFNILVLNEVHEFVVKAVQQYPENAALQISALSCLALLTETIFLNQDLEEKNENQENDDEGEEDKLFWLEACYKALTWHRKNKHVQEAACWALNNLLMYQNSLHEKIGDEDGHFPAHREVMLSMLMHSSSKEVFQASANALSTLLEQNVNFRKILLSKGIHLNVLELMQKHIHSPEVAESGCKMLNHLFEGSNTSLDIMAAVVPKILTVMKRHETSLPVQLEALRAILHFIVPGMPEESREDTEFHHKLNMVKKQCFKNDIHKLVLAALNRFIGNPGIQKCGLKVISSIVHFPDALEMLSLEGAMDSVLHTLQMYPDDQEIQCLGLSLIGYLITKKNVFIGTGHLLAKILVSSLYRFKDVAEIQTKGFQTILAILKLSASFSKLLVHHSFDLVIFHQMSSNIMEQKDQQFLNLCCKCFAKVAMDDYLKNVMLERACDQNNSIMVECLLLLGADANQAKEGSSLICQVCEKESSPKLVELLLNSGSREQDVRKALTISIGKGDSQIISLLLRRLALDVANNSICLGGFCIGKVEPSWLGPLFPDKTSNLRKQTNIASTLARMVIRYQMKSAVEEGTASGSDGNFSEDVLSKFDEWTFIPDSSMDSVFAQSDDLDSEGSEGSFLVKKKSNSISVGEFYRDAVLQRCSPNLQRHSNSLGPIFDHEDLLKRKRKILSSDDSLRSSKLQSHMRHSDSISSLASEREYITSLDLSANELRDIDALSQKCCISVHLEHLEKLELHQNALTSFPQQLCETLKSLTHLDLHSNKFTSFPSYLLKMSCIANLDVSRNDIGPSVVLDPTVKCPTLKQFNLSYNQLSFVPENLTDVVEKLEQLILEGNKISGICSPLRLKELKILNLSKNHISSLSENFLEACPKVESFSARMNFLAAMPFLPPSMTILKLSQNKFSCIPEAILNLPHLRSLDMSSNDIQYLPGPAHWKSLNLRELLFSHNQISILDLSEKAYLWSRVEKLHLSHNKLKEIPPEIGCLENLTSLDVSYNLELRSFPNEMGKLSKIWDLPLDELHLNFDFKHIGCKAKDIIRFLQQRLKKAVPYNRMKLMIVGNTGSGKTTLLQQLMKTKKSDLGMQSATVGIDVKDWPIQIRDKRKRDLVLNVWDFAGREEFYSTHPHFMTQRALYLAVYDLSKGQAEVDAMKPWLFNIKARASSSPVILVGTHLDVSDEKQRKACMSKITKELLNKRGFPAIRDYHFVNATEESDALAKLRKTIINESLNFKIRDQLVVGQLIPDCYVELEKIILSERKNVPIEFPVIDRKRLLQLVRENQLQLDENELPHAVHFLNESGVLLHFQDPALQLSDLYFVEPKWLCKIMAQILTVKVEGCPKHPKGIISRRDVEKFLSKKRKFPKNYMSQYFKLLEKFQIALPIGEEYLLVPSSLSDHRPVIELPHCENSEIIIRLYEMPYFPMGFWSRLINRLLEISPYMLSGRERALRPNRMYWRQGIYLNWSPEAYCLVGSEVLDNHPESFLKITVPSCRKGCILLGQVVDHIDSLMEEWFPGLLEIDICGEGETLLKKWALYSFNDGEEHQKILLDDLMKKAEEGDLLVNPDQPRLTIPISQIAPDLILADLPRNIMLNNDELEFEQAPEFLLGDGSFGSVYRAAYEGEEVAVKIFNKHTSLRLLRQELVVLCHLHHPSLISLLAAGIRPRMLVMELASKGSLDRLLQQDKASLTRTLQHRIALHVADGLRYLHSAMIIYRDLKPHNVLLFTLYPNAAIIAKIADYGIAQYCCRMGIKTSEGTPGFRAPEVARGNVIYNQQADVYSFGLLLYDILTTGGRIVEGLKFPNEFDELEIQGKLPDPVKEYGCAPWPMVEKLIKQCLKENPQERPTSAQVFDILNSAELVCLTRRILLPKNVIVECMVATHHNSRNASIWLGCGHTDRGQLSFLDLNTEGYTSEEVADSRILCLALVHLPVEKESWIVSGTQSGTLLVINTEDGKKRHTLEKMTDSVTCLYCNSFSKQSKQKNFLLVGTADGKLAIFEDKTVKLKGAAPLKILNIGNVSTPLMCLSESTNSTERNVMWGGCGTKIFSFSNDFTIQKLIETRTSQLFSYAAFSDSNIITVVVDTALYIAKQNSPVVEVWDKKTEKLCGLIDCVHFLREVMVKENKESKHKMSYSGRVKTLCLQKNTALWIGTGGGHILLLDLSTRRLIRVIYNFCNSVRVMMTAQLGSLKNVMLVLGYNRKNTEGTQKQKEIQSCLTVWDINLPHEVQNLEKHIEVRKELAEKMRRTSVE
UniProt P07947, whole entry, looked up: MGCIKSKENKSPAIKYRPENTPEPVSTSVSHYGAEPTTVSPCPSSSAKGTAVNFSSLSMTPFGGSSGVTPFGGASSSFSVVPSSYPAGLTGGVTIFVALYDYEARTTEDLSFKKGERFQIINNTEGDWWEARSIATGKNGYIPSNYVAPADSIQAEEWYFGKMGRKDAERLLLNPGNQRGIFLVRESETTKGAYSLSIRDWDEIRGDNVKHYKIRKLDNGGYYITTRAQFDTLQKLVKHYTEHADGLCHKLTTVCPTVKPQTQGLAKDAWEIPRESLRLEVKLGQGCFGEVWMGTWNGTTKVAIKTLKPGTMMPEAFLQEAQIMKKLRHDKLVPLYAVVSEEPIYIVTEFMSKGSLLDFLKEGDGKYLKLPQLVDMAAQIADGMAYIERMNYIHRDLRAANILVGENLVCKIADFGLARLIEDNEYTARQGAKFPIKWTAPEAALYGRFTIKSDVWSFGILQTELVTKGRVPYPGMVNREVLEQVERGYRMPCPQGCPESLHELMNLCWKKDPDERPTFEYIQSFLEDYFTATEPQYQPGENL
UniProt P35916, whole entry: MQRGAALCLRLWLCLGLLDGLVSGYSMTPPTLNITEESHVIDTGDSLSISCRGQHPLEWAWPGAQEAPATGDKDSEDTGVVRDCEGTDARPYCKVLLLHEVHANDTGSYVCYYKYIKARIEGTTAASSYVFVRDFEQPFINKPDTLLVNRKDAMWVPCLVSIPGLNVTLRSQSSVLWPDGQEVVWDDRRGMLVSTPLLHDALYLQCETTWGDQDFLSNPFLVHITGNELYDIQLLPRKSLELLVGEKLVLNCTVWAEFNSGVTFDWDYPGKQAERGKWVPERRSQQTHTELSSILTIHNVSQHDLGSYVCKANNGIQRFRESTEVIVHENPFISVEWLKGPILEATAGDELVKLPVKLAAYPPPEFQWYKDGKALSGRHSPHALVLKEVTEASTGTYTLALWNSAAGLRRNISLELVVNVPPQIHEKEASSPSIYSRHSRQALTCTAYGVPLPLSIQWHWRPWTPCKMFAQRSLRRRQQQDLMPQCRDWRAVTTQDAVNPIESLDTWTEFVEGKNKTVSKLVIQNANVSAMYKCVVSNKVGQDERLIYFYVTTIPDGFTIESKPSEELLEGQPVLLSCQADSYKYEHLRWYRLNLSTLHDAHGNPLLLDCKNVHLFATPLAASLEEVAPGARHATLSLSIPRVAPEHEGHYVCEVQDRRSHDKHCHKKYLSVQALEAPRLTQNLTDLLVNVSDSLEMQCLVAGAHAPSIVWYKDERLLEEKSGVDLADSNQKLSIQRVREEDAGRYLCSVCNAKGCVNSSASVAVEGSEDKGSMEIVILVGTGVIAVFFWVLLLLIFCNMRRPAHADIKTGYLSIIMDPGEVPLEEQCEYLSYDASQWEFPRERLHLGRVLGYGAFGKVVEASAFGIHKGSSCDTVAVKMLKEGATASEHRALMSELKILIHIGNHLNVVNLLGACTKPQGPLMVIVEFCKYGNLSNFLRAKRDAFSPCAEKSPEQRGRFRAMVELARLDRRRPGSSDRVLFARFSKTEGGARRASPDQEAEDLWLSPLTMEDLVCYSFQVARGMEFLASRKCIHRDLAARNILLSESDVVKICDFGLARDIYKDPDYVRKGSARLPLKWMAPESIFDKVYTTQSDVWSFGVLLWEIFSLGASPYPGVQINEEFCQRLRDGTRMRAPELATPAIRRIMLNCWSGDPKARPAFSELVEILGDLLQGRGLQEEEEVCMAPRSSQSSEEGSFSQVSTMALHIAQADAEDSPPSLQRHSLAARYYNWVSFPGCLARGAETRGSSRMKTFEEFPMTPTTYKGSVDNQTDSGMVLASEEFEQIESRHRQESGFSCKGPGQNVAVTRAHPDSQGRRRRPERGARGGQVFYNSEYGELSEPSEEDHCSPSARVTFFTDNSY
UniProt P42685: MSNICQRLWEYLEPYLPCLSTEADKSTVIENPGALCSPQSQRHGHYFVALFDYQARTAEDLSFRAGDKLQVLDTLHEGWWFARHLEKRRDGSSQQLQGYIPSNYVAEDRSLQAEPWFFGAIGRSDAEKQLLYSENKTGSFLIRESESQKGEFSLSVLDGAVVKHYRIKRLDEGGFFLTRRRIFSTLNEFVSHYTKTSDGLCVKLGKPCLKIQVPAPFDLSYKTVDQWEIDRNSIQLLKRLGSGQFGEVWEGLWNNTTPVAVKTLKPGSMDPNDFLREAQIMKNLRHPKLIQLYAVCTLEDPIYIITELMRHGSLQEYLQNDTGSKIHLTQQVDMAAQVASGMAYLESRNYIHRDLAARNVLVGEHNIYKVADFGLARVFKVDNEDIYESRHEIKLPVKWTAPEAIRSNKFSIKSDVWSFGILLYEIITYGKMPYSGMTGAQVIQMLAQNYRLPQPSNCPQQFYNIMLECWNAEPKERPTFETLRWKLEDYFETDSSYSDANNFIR

[8] = biological target: T2, MAP3K3 (UniProt Q99759)
T2 sequence (whole entry): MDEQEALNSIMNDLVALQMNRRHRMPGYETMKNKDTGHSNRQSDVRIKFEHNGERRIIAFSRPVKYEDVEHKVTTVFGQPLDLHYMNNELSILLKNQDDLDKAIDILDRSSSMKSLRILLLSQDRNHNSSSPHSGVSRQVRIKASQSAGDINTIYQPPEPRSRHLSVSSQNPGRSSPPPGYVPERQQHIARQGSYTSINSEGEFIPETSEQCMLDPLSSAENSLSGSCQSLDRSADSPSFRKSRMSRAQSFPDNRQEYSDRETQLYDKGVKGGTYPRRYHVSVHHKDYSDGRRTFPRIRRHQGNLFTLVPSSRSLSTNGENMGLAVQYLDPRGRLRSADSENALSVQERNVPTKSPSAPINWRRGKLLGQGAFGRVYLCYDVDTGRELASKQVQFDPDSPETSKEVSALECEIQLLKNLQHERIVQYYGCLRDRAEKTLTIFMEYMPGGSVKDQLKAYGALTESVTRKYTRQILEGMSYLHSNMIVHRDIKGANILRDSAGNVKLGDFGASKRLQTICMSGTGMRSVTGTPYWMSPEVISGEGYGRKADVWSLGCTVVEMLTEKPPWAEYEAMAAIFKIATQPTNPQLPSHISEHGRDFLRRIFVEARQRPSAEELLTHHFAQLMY

[9] = biological target: PRKCB (UniProt P05771)
[10] = biological target: EPHA4 (UniProt P54764)
[11] = biological target: EPHA5 (UniProt P54756)
[12] = biological target: FLT4 (UniProt P35916)
[13] = biological target: LOC100128443
[14] = biological target: BMP2K (UniProt Q9NSY1)
[15] = biological target: FRK (UniProt P42685)

apparent dissociation constant pKd app (-log10) [1] | apparent dissociation constant pKd app (-log10) [2] | apparent dissociation constant pKd app (-log10) [3] | apparent dissociation constant pKd app (-log10) [4] | apparent dissociation constant pKd app (-log10) [5] | apparent dissociation constant pKd app (-log10) [6] | apparent dissociation constant pKd app (-log10) [7] | apparent dissociation constant pKd app (-log10) [8] | apparent dissociation constant pKd app (-log10) [9] | apparent dissociation constant pKd app (-log10) [10] | apparent dissociation constant pKd app (-log10) [11] | apparent dissociation constant pKd app (-log10) [12] | apparent dissociation constant pKd app (-log10) [13] | apparent dissociation constant pKd app (-log10) [14] | apparent dissociation constant pKd app (-log10) [15] | SMILES
< 4.6 | < 4.8 | < 4.8 | < 4.7 | < 4.8 | < 4.6 | < 4.5 | < 4.6 | < 4.7 | < 4.6 | < 4.6 | < 4.7 | < 4.6 | < 4.8 | < 4.7 | O=C(c1cc(Cc2n[nH]c(=O)c3ccccc23)ccc1F)N1CCN(C(=O)C2CC2)CC1 [Olaparib]
< 4.6 | < 4.8 | < 4.8 | < 4.7 | < 4.8 | < 4.6 | < 4.5 | < 4.6 | < 4.7 | < 4.6 | < 4.6 | < 4.7 | < 4.6 | < 4.8 | < 4.7 | NC(=O)c1cccc2cn(-c3ccc([C@@H]4CCCNC4)cc3)nc12 [Niraparib]
< 4.6 | < 4.8 | < 4.8 | < 4.7 | < 4.8 | < 4.6 | < 4.5 | < 4.6 | < 4.7 | < 4.6 | < 4.6 | < 4.7 | < 4.6 | < 4.8 | < 4.7 | Cn1ncnc1[C@H]1c2n[nH]c(=O)c3cc(F)cc(c23)N[C@@H]1c1ccc(F)cc1 [Talazoparib]

Reference: the supplement of paper PMC11403291
